Test [1] deals with T1, Lats1 (Homo sapiens, UniProt O95835).
T1 construct: purchased Carna 01-123
T1 sequence (O95835 1-1130): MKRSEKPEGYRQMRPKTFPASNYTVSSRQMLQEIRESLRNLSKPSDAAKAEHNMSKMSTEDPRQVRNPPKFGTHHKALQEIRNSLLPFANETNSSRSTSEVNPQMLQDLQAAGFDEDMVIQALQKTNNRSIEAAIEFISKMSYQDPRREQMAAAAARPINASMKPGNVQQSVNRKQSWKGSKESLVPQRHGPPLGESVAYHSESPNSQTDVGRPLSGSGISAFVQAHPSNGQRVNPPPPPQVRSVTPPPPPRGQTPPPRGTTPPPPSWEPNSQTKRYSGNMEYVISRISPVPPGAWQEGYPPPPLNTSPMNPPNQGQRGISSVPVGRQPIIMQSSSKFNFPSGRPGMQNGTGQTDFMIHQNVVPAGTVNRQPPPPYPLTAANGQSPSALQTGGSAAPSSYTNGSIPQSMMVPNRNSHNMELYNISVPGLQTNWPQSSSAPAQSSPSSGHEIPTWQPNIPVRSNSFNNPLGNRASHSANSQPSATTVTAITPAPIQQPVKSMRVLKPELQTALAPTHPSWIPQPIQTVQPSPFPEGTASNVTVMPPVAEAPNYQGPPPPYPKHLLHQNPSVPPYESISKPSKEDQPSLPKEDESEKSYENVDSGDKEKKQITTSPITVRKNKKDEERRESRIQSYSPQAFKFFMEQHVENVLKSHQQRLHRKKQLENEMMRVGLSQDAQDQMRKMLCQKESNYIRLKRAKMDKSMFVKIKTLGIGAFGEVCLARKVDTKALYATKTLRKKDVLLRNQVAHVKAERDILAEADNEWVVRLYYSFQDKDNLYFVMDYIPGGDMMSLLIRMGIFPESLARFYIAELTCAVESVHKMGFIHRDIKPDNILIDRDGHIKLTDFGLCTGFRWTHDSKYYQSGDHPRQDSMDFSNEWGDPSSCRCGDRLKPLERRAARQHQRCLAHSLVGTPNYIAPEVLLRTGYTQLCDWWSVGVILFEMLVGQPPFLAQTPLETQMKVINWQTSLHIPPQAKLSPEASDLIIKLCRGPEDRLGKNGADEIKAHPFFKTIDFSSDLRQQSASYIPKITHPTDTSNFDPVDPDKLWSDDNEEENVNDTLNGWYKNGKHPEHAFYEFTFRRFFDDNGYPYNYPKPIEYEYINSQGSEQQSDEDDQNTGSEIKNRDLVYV
Briefly: In vitro kinase assay (HTRF KinEASE-STK S1) Lats1, 10 uM ATP. The settings on record: read-out: LATS1_HTRF_10 uM ATP IC50. The format is biochemical. As to the method:
IVKA assay at 10 uM method:
(§1) Reactions were conducted with 10 μM STK1 substrate and 10 μM ATP or 2 mM ATP as shown below. […] The enzyme, substrate, ATP, and test compound of the invention were combined in a low-volume 384-well plate and shaken for 50 min at room temperature, unless otherwise indicated. The reaction was stopped by adding the detection reagents, which were prepared at an 8:1 biotin:streptavidin ratio and shaking for 60 min at room temperature. All reactions were conducted in triplicate and a Synergy NEO (Biotek) was used to detect the signal.
In general terms: TR-FRET usually uses a lanthanide donor and a delayed reading to cut background.

The target in test [2] is T1, Lats1. Briefly: In vitro kinase assay (HTRF KinEASE-STK S1) Lats1, 2 mM ATP. The settings on record: read-out: LATS1_HTRF_2 mM ATP IC50. The format is biochemical. As to the method:
as §1
Assay was carried out in a 384 well plate. Each drug dosage curve was done with 16 points of 3-fold dilutions in 100% DMSO, and triplicate.

As usually defined, the IC50 is the concentration at which inhibition is half-maximal. As to `O=C(/N=c1\sccn1CC1CCCCC1)c1c[nH]c2ncccc12` [T55], the values for the IC50 at Lats1 [1] and on Lats1 [2] were 2 nM and 4.9 nM, respectively.

For the origin of these results see US12617785B2, “Pyrrolo[2,3-b]pyridine-3-carboxamide compositions and methods for ameliorating hearing loss” (priority 2020, dated 2026).
